The numbers were not newly measured in article PMC8329336, “The Role of Co-Signaling Molecules in Psoriasis and Their Implications for Targeted Treatment” (Frontiers in Pharmacology, 2021), which cites them from elsewhere.

The subject of data set [1] is CD80, CD86. More on the design: method as in Abrams et al., 1999; Abrams et al., 2000. To be noted: Phase I clinical trials, ref Abrams et al., 1999, 2000.
In data set [2] the test system is CD80, CD86. The arrangement: method as in Mease et al., 2011, 2017; Strand et al., 2018. To be noted: Phase III, ref Mease et al., 2011, 2017, Strand et al., 2018; for improvement in PsA (patient-reported outcomes): patients with active PsA.
For another data set, the system named is CD80 and CD86. The arrangement: method as in Zizzo et al., 2018. To be noted: compared with CD28; ref Zizzo et al., 2018.
Another data set deals with human B cells. The arrangement: method as in Lorenzetti et al., 2019. The settings on record: ref Lorenzetti et al., 2019.
Data set [3] relates to CD80, CD86. More on the design: method as in Mease et al., 2011; Iannone and Lapadula, 2012. To be noted: ref Mease et al., 2011; Iannone and Lapadula, 2012.
Data set [4] relates to CD80, CD86.
[5] abbreviates: listed as Abatacept (CTLA-4 Ig).

Read-outs that look alike come from different tables or passages of the source.

Turning to “Abatacept: soluble, fully human fusion protein: extracellular domain of CTLA-4 linked to the Fc portion of human IgG1”, the “clinical improvement and cytopathological reversal of psoriatic plaques” value with CD80, CD86 [1] is on record as “in a dose-dependent manner”. For the same substance, in the data set with CD80, CD86 [2], the “improvement in PsA (patient-reported outcomes)” value is on record as “significantly improved” and the “impact on psoriasis (skin) lesions” value is given as “only a modest benefit”. In the data set with CD80, CD86 [2] (setting [5]), the “improvement in PsA (patient-reported outcomes)” value was “significant improvement” and the “impact on psoriasis (skin) lesions” value is on record as “Modest impact”. In the data set on CD80 and CD86, the “affinity for CD80 and CD86 on APCs” value was “much higher affinity compared with CD28”. Moreover, the “CD80 and CD86 expression and memory formation” value in the data set with human B cells is listed as “directly modulate”. Moreover, in the data set with CD80, CD86 [3], the “usefulness in the therapy of cutaneous psoriasis” value is on record as “less useful” and the “value for the treatment of PsA” value is recorded as “valuable”. In the data set with CD80, CD86 [4] (in vivo), the “overall risk of infections, malignancies or autoimmune diseases” value is “did not lead to an overall increased risk”. Besides, the safety and tolerability result with CD80, CD86 [4] (ref Ozen et al., 2019) is “safe and well-tolerated”.
